Experimental data taken from EPA's ToxValDB 9.5.

Assays:
Rattus norvegicus [1] = conditions: acute; oral
Oryctolagus sp. = conditions: acute; dermal
Rattus norvegicus [2] = conditions: short-term; duration: 28 days; oral; gavage; M; Sprague-Dawley; Clinical Observation: Locomotor activity decrease, Respiratory rate decrease, Incomplete eyelid opening Emaciation + Functional …

`CCC(C)(C)c1ccc(O)cc1` [4-(2-Methylbutan-2-yl)phenol] showed an LD50 (Rattus norvegicus [1]) of 1830 mg/kg.

Work on `CCCCCCO` [1-Hexanol] yielded an LD50 (Oryctolagus sp.) of 3100 mg/kg.

For `Nc1ccc(Cc2ccc(N)c(Cl)c2)cc1Cl` [4,4'-Methylenebis(2-chloroaniline)], the LD50 (Rattus norvegicus [1]) was 1140 mg/kg.

`[K+].[O-][Br+2]([O-])[O-]` [Potassium bromate] was tested, and the NOAEL (Rattus norvegicus [2]) was 20 mg/kg-day and the NOEL (Rattus norvegicus [2]) was less than 20 mg/kg-day.
